# Measured values as given in PubChem BioAssay AID1766 (National Center for Advancing Translational Sciences (NCATS), 2009).
# Several values for one entry are separate records, joined by “and”; a condition that tells them apart may be missing. Identical values can stand only once. Only a part is listed here, and it is no random draw. Records with an inconclusive call do not appear. Activity calls are given as the source filed them. Calls come from the whole dose curve; as a rule, active = well fitted curve in the direction sought with a large enough effect in the polarisation (not every such curve was filed as active); inconclusive = small, poorly fitted or top-dose-only effect, or effect the other way, or a change in a side signal; inactive = no such curve, though single readings can be large or run the other way; the % refers to the polarisation.
# Experiment: qHTS Assay for Inhibitors Targeting the Menin-MLL Interaction in MLL Related Leukemias: Competition With Fluorescein Labeled MLL-derived Peptide; note: % of control where 0% means no effect
# Settings: Fluorescence polarization, fluorescein-MLL peptide displacement from menin
# [1] = at 61.4 µM (top of the series) unless noted
structure (smiles),measurement,setting,value
O=[N+]([O-])c1ccc(Nc2ccc(Oc3ccc([N+](=O)[O-])cc3[N+](=O)[O-])cc2)c([N+](=O)[O-])c1,FP activity change,[1],inactive: 33.1%
CP(=O)(Nc1ccccc1Br)Oc1ccccc1 (stereo not drawn),FP activity change,[1],inactive: -0.494%
COc1ccccc1OP(C)(=O)Nc1ccccc1 (stereo not drawn),FP activity change,[1],inactive: -3.79%
O=P(Nc1ccccn1)(c1cccc2ccccc12)c1cccc2ccccc12,FP activity change,[1],inactive: -0.476%
Cc1cc(SC(NC=O)C(Cl)(Cl)Cl)ncn1 (stereo not drawn),FP activity change,[1],inactive: 3.99%
CCOC(=O)Nc1cccc([As](=O)(O)O)c1,FP activity change,[1],inactive: 8.6%
CP(=S)(Nn1cnnc1)Oc1ccccc1 (stereo not drawn),FP activity change,[1],inactive: -0.278%
Cc1cc(SC(NC(=O)c2ccccc2)C(Cl)(Cl)Cl)nc(C(C)C)n1 (stereo not drawn),FP activity change,[1],inactive: 1%
CCCCOc1ccc(C(=O)NCC2(N3CCCCC3)CCCCC2)cc1OC,FP activity change,[1],inactive: 0.335%
CCOC(=O)Nc1ccc([As](=O)(O)O)c(O)c1,FP activity change,[1],inactive: 1.13%
CP(=O)(Nc1ccccn1)Oc1ccc(Cl)cc1 (stereo not drawn),FP activity change,[1],inactive: 1.3%
CCC(C)N(CC(C)C)C(=S)SC(NC(C)=O)C(Cl)(Cl)Cl (stereo not drawn),FP activity change,[1],inactive: 1.1%
CN(C)CCS,FP activity change,[1],inactive: -2.06%
CCOC(=O)c1ccc(NC(=O)C(C)(CCl)SC)cc1 (stereo not drawn),FP activity change,[1],inactive: 0.941%
CCOC(=O)c1ccc(NP(C)(=O)Oc2ccc(OC)cc2)cc1 (stereo not drawn),FP activity change,[1],inactive: 0.372%
CCOP(C)(=S)SCC(=O)NC(C)C(=O)O (stereo not drawn),FP activity change,[1],inactive: 0.916%
O=C(OC1CN2CCC1CC2)c1cccc([N+](=O)[O-])c1 (stereo not drawn),FP activity change,[1],inactive: -3.85%
O=C(Nc1ccncc1[N+](=O)[O-])c1ccc([N+](=O)[O-])cc1[N+](=O)[O-],FP activity change,[1],inactive: 23.3%
Cc1cc(C)cc(OP(C)(=O)Nc2ccc(SC(F)(F)F)cc2)c1 (stereo not drawn),FP activity change,[1],inactive: 0.892%
CCc1ccc(OP(C)(=O)N2CCN(c3ccc([N+](=O)[O-])cc3)CC2)cc1 (stereo not drawn),FP activity change,[1],inactive: -2.43%
O=C(COc1ccccc1)OC1CN2CCC1CC2 (stereo not drawn),FP activity change,[1],inactive: -0.57%
CP(=O)(NC(=O)Nc1ccccc1)Oc1ccccc1 (stereo not drawn),FP activity change,[1],inactive: 0.731%
CP(=O)(Oc1ccccc1)OC(c1ccccc1)C(F)(F)F (stereo not drawn),FP activity change,[1],inactive: -1.09%
Cc1cccc(C)c1OP(C)(=O)Nc1ccc(SC(F)(F)F)cc1 (stereo not drawn),FP activity change,[1],inactive: -0.617%
CP(=O)(Nc1ccc(SC(F)(F)F)cc1)Oc1ccc(Cl)cc1 (stereo not drawn),FP activity change,[1],inactive: 0.0296%
COP1(=S)c2c(C)nn(CCC#N)c2N=C(c2ccc(F)cc2)N1C (stereo not drawn),FP activity change,[1],inactive: 2.43%
COc1ccc(N/C(=N/P(=O)(N2CCOCC2)N2CCOCC2)N2CCOCC2)cc1,FP activity change,[1],inactive: -0.847%
COc1cc(I)ccc1[As](=O)(O)O,FP activity change,[1],inactive: -0.682%
COc1ccc2nc(NP(=O)(c3ccccc3)c3ccccc3)sc2c1,FP activity change,[1],inactive: -0.343%
Cc1cc(=O)[nH]c(N[N+](=O)[O-])n1,FP activity change,[1],inactive: -0.424%
CCN(CC)CCCOC(=O)C(O)(c1ccccc1)c1ccccc1,FP activity change,[1],inactive: 0.73%
O=C(OC1CN2CCC1CC2)C12CC3CC(CC(C3)C1)C2 (stereo not drawn),FP activity change,[1],inactive: -0.0327%
Cc1c2c(nc3ccccc13)SC(C(Cl)Cl)C2 (stereo not drawn),FP activity change,[1],inactive: 3.95%
Cc1cc(C)cc(OP(C)(N)=O)c1 (stereo not drawn),FP activity change,[1],inactive: 2.16%
O=[N+]([O-])c1cc([N+](=O)[O-])c(-c2ccn[nH]2)s1,FP activity change,[1],inactive: -1.74%
COc1ccc(OP(C)(=O)Nc2cccc(F)c2)cc1 (stereo not drawn),FP activity change,[1],inactive: -2.42%
CCN(CC)C(=S)SC(NC=O)C(Cl)(Cl)Cl (stereo not drawn),FP activity change,[1],inactive: 2.31%
COc1ccccc1OP(C)(=O)Nc1cc(Cl)ccc1C (stereo not drawn),FP activity change,[1],inactive: 1.02%
CC(C)NC(=O)NP(=O)(Oc1ccccc1)Oc1ccccc1,FP activity change,[1],inactive: -1.94%
Cc1ccc(NP(C)(=O)Oc2ccccc2)c(C)c1 (stereo not drawn),FP activity change,[1],inactive: 6.47%
CC(C)c1ccc(OP(=O)(Nc2ccccn2)Oc2ccccc2F)cc1 (stereo not drawn),FP activity change,[1],inactive: 6.77%
COc1ccccc1OP(C)(=O)Nc1ccc(C)cc1 (stereo not drawn),FP activity change,[1],inactive: -0.152%
ClCCSc1nnc(-c2cccnc2)o1,FP activity change,[1],inactive: 5.57%
CCOC(=O)c1ccc(NP(C)(=O)Oc2ccccc2)cc1 (stereo not drawn),FP activity change,[1],inactive: 6.98%
Cc1ccc2nc3c(c(C)c2c1)CC(C(Cl)Cl)S3 (stereo not drawn),FP activity change,[1],inactive: 1.96%
O=[N+]([O-])c1ccc2c(c1)C=Nc1ccccc1O2,FP activity change,[1],inactive: -2.17%
O=C(O)C(O)(c1ccccc1)c1ccccc1,FP activity change,[1],inactive: 1.13%
Cc1cccc(C)c1OP(C)(N)=O (stereo not drawn),FP activity change,[1],inactive: 1.14%
CC(C)(C)c1ccc(OP(C)(=O)Nc2ccc(SC(F)(F)F)cc2)cc1 (stereo not drawn),FP activity change,[1],inactive: 1.39%
Cc1ccc(OP(=O)(Nc2ccc([N+](=O)[O-])cn2)Oc2ccc(C)cc2)cc1,FP activity change,[1],inactive: 3.52%
O=C(O)C1(O)c2ccccc2-c2ccccc21,FP activity change,[1],inactive: 1.04%
C[As](=O)(O)c1cccc(C(=O)O)c1,FP activity change,[1],inactive: -4.84%
O=[As](O)(c1ccc(O)cc1)c1ccccc1O,FP activity change,[1],inactive: 1.02%
CC1=NCCc2c1[nH]c1ccccc21.O=[N+]([O-])c1cc([N+](=O)[O-])c(O)c([N+](=O)[O-])c1,FP activity change,[1],inactive: 9.32%
O=[N+]([O-])c1ccc2c(c1)nnn2O,FP activity change,[1],inactive: -1.16%
CN(C(=O)Cc1ccccc1)[C@@H]1CC[C@]2(CCCO2)C[C@H]1N1CCCC1,FP activity change,[1],inactive: 2.99% and inactive: 4.07%
CCOP1(=S)c2c(C)nn(CCC#N)c2N=C(c2ccc(F)cc2)N1C (stereo not drawn),FP activity change,[1],inactive: 1.98%
O=[N+]([O-])OCC(CO[N+](=O)[O-])(CO[N+](=O)[O-])CO[N+](=O)[O-],FP activity change,[1],inactive: 0.415%
O=[N+]([O-])CC(O)c1ccc([N+](=O)[O-])cc1 (stereo not drawn),FP activity change,[1],inactive: 0.0665%
NC(=O)Nc1ccc([As](=O)(O)O)cc1,FP activity change,at 24.8 µM (top of the series),inactive: -6.24%
same,FP activity change,at 61.4 µM (top of the series),inactive: 3.22%
Nc1ccccc1[As](=O)(O)c1ccccc1,FP activity change,[1],inactive: 3.24%
O=C(O)COc1ccc([As](=O)(O)O)cc1[N+](=O)[O-],FP activity change,[1],inactive: -27.7%
O=P(Nc1nccs1)(c1ccccc1)c1nc2ccccc2s1 (stereo not drawn),FP activity change,[1],inactive: 3.88%
O=[N+]([O-])c1cccc([N+](=O)[O-])c1,FP activity change,[1],inactive: 1.31%
O=P(Nc1nccs1)(Oc1ccccc1)Oc1ccccc1,FP activity change,[1],inactive: 1.43%
CCOP1(=S)c2c(C)nn(CCC#N)c2N=C(c2ccccc2F)N1C (stereo not drawn),FP activity change,[1],inactive: 0.333%
CCOP(=O)(Nc1cccc2ccccc12)OCC,FP activity change,[1],inactive: 3.6%
CCCOP(=S)(Nc1nc(N)cc(=O)[nH]1)OCCC,FP activity change,[1],inactive: 4.73%
Cc1ccc(C)c(NP(C)(=O)Oc2ccccc2)c1 (stereo not drawn),FP activity change,[1],inactive: 3.45%
Cc1ccc(NCCc2c([N+](=O)[O-])cc([N+](=O)[O-])cc2[N+](=O)[O-])cc1,FP activity change,[1],inactive: 1.06%
CP(=O)(Nc1cccc(Br)c1)Oc1ccccc1 (stereo not drawn),FP activity change,[1],inactive: 1.98%
Cc1cc(C)cc(OP(C)(=O)Nc2ccccn2)c1 (stereo not drawn),FP activity change,[1],inactive: 0.698%
CCOC(=O)c1ccc(NP(C)(=O)Oc2cc(C)cc(C)c2)cc1 (stereo not drawn),FP activity change,[1],inactive: 0.758%
Cc1cc(C)cc(OP(C)(=O)Nc2ccc(C)cc2C)c1 (stereo not drawn),FP activity change,[1],inactive: 3.9%
O=[As](O)(c1cccc(O)c1)c1cccc(O)c1,FP activity change,[1],inactive: 6.7%
Cc1cccc(OCC(=O)OC2CN3CCC2CC3)c1 (stereo not drawn),FP activity change,[1],inactive: 1.46%
COc1ccccc1OP(C)(=O)Nc1cccc(Br)c1 (stereo not drawn),FP activity change,[1],inactive: -3.09%
COc1cc(C(=O)NCC2(N3CCOCC3)CCCCC2)cc(Cl)c1OC(C)C,FP activity change,[1],inactive: 1.02%
O=[As](O)(O)c1cccnc1,FP activity change,[1],inactive: -2.5%
CN(C(=O)Cc1ccc(Cl)c(Cl)c1)[C@@H]1CC[C@]2(CCCO2)C[C@H]1N1CCCC1,FP activity change,[1],inactive: 2.65%
O=C(OC1CN2CCC1CC2)c1ccc(Cl)cc1 (stereo not drawn),FP activity change,[1],inactive: -5.3%
Cc1nc2ccc3ccccc3c2s1.O=[N+]([O-])c1cc([N+](=O)[O-])c(O)c([N+](=O)[O-])c1,FP activity change,[1],inactive: -0.749%
O=[As](O)(c1ccccc1Br)c1ccccc1Br,FP activity change,[1],inactive: 3.22%
CC(C)/C=N\N=C(\N)N[N+](=O)[O-],FP activity change,[1],inactive: 0.116%
CC(C)N(CCCl)C(C)C,FP activity change,[1],inactive: -4.08%
CC(C)(C)C(=O)NC(Sc1ncccn1)C(Cl)(Cl)Cl (stereo not drawn),FP activity change,[1],inactive: -7.11%
Clc1n[nH]nc1-c1nn[nH][15n]1,FP activity change,[1],inactive: 1.02%
CN(CCCl)Cc1cc(Cl)c(NC2=NCCN2)c(Cl)c1,FP activity change,[1],inactive: 2.77%
CCOP(=O)(Nc1ccc(C)cn1)OCC,FP activity change,[1],inactive: 4.39%
O=[N+]([O-])c1cc([N+](=O)[O-])c(-n2nnc3ccccc32)c([N+](=O)[O-])c1,FP activity change,[1],inactive: -0.642%
O=P1(Nc2ccccn2)COc2ccccc2OC1,FP activity change,[1],inactive: 4.99%
CCC1=CC2Cc3nc4ccc(Cl)cc4c(N)c3C(C1)C2 (stereo not drawn),FP activity change,[1],inactive: 2.5%
O=P1(Nc2ccc(Br)cn2)COc2ccccc2OC1,FP activity change,[1],inactive: 1.62%
Cc1ccc(OCC(=O)OC2CN3CCC2CC3)cc1 (stereo not drawn),FP activity change,[1],inactive: -4.19%
CP(=O)(Nc1ccc(SC(F)(F)F)cc1)Oc1ccccc1 (stereo not drawn),FP activity change,[1],inactive: 6.98%
Nc1cccc([As](=O)(O)c2ccccc2)c1,FP activity change,[1],inactive: 0.0348%
CCCOc1ccc(NP(C)(=O)Oc2ccc(Cl)cc2)cc1 (stereo not drawn),FP activity change,[1],inactive: -0.623%
O=P1(Nc2ncccn2)COc2ccccc2OC1,FP activity change,[1],inactive: 4.21%
COc1ccccc1OP(C)(=O)Nc1c(C)cccc1C (stereo not drawn),FP activity change,[1],inactive: 5.33%
CN1CCCCC1COC(=O)C1(O)c2ccccc2CCc2ccccc21 (stereo not drawn),FP activity change,[1],inactive: 2.22%
O=C(/C=C/c1ccccc1)OC1CN2CCC1CC2 (stereo not drawn),FP activity change,[1],inactive: -0.359%
O=[N+]([O-])c1cc([N+](=O)[O-])c(Nc2nnnn2CCO)c([N+](=O)[O-])c1,FP activity change,[1],inactive: 7.58%
